Literature values in patent publication US12527876B2, “Insulin-like growth factor-chemotherapeutic conjugate for treating myelodysplastic syndrome” (IGF Oncology, LLC, priority 2017, dated 2026).

Test system: soluble IGF binding proteins
Settings: compared to wild-type IGF-1; Francis 1992, Tomas 1993, U.S. Pat. No. 4,876,242; cited from earlier work

R3-IGF: human IGF-1 with arginine replacing glutamic acid at position 3, SEQ ID NO: 6 [reference compound]
binding affinity to the soluble IGF binding proteins: reduced binding affinity
